## Antibody variant affinities, Ab-95 light chain, assay 2

Target: peptide PDVDLGDISGINAS, taken from heptad repeat 2 (HR2) of SARS-CoV-2 spike.

Parent scFv Ab-95: VH joined to VL by three GGGGS repeats. Changes lie in the light chain CDRs alone.
VH: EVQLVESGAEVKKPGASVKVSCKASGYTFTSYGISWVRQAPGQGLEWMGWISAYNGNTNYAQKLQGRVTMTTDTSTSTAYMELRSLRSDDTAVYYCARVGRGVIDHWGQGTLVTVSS
VL: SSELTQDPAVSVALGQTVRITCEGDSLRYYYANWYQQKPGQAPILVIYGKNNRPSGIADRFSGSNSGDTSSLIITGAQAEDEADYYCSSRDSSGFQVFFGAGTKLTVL

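Phage display of a naive human antibody library on the peptide gave the parent. In library AAYL52, one, two or three CDR residues were substituted; doubles and triples were drawn at random. The scFvs were displayed on barcoded MATa yeast, the peptide on MATalpha yeast. After mating in shaken culture at 30 °C for 16 h, diploids were selected and their barcode pairs sequenced. A regression on co-assayed BCL2-family reference pairs converts the normalised counts of each replicate to an apparent Kd. The assay was run in three technical replicates.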

Each variant's VL is given in full. This list gathers variants with a substitution at S93 (VL, numbered from residue 1). Each Kd is an estimate from the mating assay, the geometric mean of the replicates in which the pair was seen; lower is stronger. An entry "nd" has no value in the source: the pair was not observed among the diploids in any replicate. This suggests poor binding but is not conclusive.

The variant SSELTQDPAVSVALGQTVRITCEGDSLRYYYANWYQQKPGQAPILVIYGKNNRPSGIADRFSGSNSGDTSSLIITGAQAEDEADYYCVSRDSVGTQVFFGAGTKLTVL showed 670 nM (3 of 3 replicates; controls 1 of 9). For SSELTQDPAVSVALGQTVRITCEGDSLRYYYANWYQQKPGQAPILVIYGKNNRPSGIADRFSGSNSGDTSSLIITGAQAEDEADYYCSSRDSEGTSVFFGAGTKLTVL, the assay gave 900 nM (3 of 3 replicates; controls 3 of 9). With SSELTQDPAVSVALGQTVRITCEGDSLRYYYANWYQQKPGQAPILVIYGKNNRPSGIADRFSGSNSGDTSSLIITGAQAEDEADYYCSSRDNHVFQVFFGAGTKLTVL the result was 5.8 µM (2 of 3 replicates; controls 4 of 9). The variant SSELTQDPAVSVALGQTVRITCEGDSLRYYYANWYQQKPGQAPILVIYGKNNRPSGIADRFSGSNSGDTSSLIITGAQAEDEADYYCSSWDSQGFQVSFGAGTKLTVL showed nd (0 of 3 replicates; controls 1 of 9). The variant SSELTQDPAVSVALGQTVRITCEGDSLRYYYANWYQQKPGQAPILVIYAKNNRPSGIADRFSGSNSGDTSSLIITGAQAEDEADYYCSSIDSNGFQVFFGAGTKLTVL showed 3.5 µM (1 of 3 replicates; controls 4 of 9). The variant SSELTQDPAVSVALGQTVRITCEGDSLRYYYANWYQQKPGQAPILVIYGKNNRPSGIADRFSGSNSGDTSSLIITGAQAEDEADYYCSSRDSGGEQVVFGAGTKLTVL showed nd (0 of 3 replicates; controls 0 of 9). The variant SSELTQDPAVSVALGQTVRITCEGDSLRYYYANWYQQKPGQAPILVIYGKNNRPSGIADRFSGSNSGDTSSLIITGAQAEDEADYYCSGRDSRFFQVFFGAGTKLTVL gave 500 nM (3 of 3 replicates; controls 3 of 9).

The variant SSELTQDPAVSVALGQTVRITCEGDSNRYYYANWYQQKPGQAPILVIYGRNNRPSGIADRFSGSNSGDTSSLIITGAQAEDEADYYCSSRDSEGFQVFFGAGTKLTVL gave 1.1 µM (3 of 3 replicates; controls 1 of 9). For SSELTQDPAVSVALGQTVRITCEGDSLRYYYANWYQQKPGQAPILVIYGKNNRPWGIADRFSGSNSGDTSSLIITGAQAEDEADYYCSSRDSNGFEVFFGAGTKLTVL, the assay gave 1.2 µM (2 of 3 replicates; controls 0 of 9). With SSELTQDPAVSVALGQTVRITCEGDSLRYYYANWYQQKPGQAPILVIYGKNNRPSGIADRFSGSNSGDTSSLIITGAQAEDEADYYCSMRDSCGFQVFFGAGTKLTVL the result was 1.5 µM (3 of 3 replicates; controls 4 of 9). The variant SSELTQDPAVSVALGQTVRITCEGDSLRYYYANWYQQKPGQAPILVIYGKNFRPSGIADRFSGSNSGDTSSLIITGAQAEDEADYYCSSRDSWGFQVFFGAGTKLTVL showed 4.7 µM (3 of 3 replicates; controls 1 of 9). For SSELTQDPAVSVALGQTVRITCEGDSLRYYYANWYQQKPGQAPILVIYGKNNRPSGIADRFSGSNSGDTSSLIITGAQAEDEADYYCTSRDSPVFQVFFGAGTKLTVL, the assay gave 1.2 µM (2 of 3 replicates; controls 0 of 9). The variant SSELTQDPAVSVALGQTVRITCEGDSLRYYYANWYQQKPGQAPILVIYGKNNRPSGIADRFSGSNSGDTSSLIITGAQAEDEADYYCSCRDSVGFQVFFGAGTKLTVL gave 1.2 µM (3 of 3 replicates; controls 5 of 9). For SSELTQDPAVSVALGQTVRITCEGDSLRYYYANWYQQKPGQAPILVIYPYNNRPSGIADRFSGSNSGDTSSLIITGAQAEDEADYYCSSRDSRGFQVFFGAGTKLTVL, the assay gave 25 µM (2 of 3 replicates; controls 1 of 9).

With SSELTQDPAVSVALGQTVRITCEGVSLRYYYANWYQQKPGQAPILVIYGKNNRISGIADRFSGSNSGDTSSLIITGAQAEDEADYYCSSRDSLGFQVFFGAGTKLTVL the result was 7.6 µM (2 of 3 replicates; controls 3 of 9). The variant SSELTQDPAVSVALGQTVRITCEGDSLRYYYAPWYQQKPGQAPILVIYGKNNRWSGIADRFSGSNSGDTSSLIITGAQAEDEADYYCSSRDSPGFQVFFGAGTKLTVL showed nd (0 of 3 replicates; controls 0 of 9). With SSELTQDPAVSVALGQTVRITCEGDSLEYYYANWYQQKPGQAPILVIYGKNNRPSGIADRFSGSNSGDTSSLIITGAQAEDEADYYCSSHDSIGFQVFFGAGTKLTVL the result was 1.2 µM (3 of 3 replicates; controls 1 of 9). With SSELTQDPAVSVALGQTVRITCEGDSLRYYYANWYQQKPGQAPILVIYGKNKRPSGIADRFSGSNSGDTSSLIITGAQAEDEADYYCSSRDSLGFQQFFGAGTKLTVL the result was 2.3 µM (2 of 3 replicates; controls 1 of 9).

Excerpt, the first 2 entries:

VL	Kd	detected	empty controls
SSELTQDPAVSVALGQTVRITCEGDSLRYYYANWYQQKPGQAPILVIYGKNNRPSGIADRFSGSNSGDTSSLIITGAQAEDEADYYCVSRDSVGTQVFFGAGTKLTVL	670 nM	3 of 3	1 of 9
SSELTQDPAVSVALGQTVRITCEGDSLRYYYANWYQQKPGQAPILVIYGKNNRPSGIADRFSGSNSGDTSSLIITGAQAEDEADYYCSSRDSEGTSVFFGAGTKLTVL	900 nM	3 of 3	3 of 9

As a blank, each scFv also met three strains without target: over library AAYL52, 28% of these pairings were detected, typically at 8.2 µM and seldom below 800 nM. Also given: how often the same scFv was detected with the empty control strains. Parent in this assay: reference entry 200 nM, copy in this library 180 nM.

Data: MIT Lincoln Laboratory AlphaSeq set, Engelhart et al. 2022, doi:10.1038/s41597-022-01779-4, as distributed in FLAb.